Experimental data taken from patent US6517856B1, “Insecticide resistance assay” (priority 1998, dated 2003).

Test system: H. virescens
Assay: Feeding disruption assay for resistance to a carbamate insecticide
Assay type: in vivo, Heliothis virescens
Conditions: 1000 ppm in test diet

In the case of CS/C(C)=N\OC(=O)N(C)SN(C)C(=O)O/N=C(\C)SC, the “discrimination of resistant (Macon Ridge) and susceptible (Wake) strains by fecal pellet production” value is reported as “can be distinguished within hours”.
